Test results from patent publication US8765791B2, “Method of treating cancer using a neuropeptide Y 5R (NP Y5R) antagonist” (University Health Network, priority 2008, dated 2014).

Tested on: Ovarian cancer cells SKOV-3
Test: ovarian cancer xenograft model (Example 13)
Type: in vivo, SCID mice
Conditions: 10 mg/kg i.p. 1/week
Source text: Ovarian cancer cells SKOV-3 (5 millions) were implanted s.c. on the right flank of SCID mice (CB17, female, 4-6 weeks) (Charles River, Wilmington, Mass.). The mice were divided into four groups, 5 mice for each group. The treatments were started when the tumor volume reached at around 60 mm3, day 8 after tumor implantation. […] The tumor growth was monitored for the duration of the experiment. […] (FIG. 14)

trastuzumab [HERCEPTIN®]
tumor growth: inhibited tumor growth
